Measured values taken from BindingDB's records for patent US12473298 (Shanghai Synergy Pharmaceutical Sciences Co., 2025).

Sequences of proteins named here, by UniProt entry; tags and fusion partners are left off.
UniProt Q15910, whole entry: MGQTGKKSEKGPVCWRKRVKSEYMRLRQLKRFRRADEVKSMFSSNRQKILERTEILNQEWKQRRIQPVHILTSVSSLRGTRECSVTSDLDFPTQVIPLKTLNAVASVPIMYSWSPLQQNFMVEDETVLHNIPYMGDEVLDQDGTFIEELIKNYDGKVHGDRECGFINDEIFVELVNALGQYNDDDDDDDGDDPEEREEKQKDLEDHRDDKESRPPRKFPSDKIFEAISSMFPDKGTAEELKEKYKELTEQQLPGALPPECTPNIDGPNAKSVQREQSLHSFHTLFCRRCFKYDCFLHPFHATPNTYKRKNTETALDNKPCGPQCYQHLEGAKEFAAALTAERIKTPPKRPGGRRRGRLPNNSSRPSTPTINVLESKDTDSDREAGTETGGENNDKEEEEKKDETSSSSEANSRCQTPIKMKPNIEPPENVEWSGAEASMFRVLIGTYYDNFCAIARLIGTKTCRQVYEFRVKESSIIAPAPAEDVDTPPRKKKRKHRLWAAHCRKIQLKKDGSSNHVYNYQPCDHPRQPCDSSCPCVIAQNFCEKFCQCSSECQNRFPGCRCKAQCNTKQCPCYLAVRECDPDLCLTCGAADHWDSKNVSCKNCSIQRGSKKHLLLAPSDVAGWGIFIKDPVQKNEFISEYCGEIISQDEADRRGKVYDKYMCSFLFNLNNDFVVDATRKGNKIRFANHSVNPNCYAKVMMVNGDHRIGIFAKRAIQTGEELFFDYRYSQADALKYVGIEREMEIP
UniProt Q15910, whole entry A677G/A687V: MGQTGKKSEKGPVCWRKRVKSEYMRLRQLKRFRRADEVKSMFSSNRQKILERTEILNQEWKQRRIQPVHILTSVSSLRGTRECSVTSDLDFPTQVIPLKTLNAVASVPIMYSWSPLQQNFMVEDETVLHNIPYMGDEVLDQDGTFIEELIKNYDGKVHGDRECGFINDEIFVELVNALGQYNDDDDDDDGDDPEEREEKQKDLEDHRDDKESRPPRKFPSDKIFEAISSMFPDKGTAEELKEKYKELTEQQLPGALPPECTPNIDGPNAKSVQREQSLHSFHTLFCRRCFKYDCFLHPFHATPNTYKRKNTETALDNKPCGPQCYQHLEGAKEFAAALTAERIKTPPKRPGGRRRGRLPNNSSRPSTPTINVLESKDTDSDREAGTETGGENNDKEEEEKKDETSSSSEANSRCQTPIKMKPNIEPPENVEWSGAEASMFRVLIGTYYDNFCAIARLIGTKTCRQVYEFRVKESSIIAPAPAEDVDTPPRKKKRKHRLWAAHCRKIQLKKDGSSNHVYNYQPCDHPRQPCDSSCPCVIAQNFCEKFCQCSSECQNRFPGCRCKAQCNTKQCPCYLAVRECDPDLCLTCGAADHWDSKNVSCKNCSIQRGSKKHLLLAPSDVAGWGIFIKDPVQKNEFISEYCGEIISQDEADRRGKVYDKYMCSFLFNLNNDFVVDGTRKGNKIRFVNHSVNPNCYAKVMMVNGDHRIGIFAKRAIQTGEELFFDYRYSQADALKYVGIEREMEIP
UniProt Q15910, whole entry Y641F: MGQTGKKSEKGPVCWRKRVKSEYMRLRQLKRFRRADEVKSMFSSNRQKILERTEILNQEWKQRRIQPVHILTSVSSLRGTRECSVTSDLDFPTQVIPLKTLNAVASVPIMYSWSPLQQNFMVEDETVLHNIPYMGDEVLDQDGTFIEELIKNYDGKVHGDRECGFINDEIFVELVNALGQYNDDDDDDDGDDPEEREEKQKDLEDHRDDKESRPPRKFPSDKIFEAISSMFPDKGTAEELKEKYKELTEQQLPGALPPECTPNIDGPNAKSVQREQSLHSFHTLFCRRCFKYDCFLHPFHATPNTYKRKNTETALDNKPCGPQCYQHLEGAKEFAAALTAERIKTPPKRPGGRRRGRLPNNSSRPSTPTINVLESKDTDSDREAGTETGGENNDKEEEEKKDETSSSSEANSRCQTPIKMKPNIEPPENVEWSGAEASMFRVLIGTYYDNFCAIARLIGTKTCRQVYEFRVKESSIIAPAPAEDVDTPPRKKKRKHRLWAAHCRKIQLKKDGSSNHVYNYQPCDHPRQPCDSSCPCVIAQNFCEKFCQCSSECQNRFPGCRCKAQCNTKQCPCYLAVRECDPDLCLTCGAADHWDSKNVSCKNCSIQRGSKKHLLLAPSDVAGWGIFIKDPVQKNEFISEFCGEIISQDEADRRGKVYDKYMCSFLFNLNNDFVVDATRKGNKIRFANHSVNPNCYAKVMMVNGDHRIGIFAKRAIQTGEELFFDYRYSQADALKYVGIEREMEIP
UniProt Q15910, whole entry Y641N: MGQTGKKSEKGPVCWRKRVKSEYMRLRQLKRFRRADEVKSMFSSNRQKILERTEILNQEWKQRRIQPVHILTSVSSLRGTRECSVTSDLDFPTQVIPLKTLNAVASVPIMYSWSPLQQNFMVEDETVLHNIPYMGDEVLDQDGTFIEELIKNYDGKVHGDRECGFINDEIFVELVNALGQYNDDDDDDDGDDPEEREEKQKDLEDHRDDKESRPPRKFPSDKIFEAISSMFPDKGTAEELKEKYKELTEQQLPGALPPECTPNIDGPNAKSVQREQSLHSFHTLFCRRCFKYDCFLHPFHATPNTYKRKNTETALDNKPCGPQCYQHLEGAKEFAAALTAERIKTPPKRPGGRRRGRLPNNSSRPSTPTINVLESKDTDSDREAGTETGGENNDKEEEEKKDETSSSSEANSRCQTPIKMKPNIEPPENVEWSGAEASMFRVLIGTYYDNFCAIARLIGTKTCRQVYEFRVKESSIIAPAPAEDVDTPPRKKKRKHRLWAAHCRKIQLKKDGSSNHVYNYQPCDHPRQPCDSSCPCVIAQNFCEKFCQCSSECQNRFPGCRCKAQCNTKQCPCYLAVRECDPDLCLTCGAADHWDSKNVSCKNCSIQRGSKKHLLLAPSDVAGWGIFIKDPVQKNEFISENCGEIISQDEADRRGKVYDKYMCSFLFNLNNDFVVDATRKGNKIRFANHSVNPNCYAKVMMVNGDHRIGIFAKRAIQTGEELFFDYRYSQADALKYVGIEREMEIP

What was measured:
[1] = target: Histone-lysine N-methyltransferase EZH2 (Homo sapiens, UniProt Q15910)
[2] = target: Histone-lysine N-methyltransferase EZH2 [A677G] (Homo sapiens, UniProt Q15910, A677G)
[3] = target: Histone-lysine N-methyltransferase EZH2 [Y641F] (Homo sapiens, UniProt Q15910, Y641F)
[4] = target: Histone-lysine N-methyltransferase EZH2 [Y641N] (Homo sapiens, UniProt Q15910, Y641N)

Row | Compound | IC50 [1] [nM] | IC50 [2] [nM] | IC50 [3] [nM] | IC50 [4] [nM]
1 | CCN(c1cc(-c2ccc3c(c2)N(C(C)C)CC32CCOCC2)cc(C(=O)NCc2c(C)cc(C)[nH]c2=O)c1C)C1CCOCC1 [US12473298, Compound 25] | 0.33 | 0.14 | 0.29 | 0.09
2 | CCN(c1cc(-c2ccc3c(c2)N(C)C(=O)C32CCN(C(F)(F)C(F)(F)F)CC2)cc(C(=O)NCc2c(C)cc(C)[nH]c2=O)c1C)C1CCOCC1 [US12473298, Compound 44] | 0.91 |  | 0.75 | 
3 | CCCN1C(=O)C2(CCOCC2)c2ccc(-c3cc(N(CC)C4CCOCC4)c(C)c(C(=O)NCc4c(C)cc(C)[nH]c4=O)c3F)cc21 [US12473298, Compound 58] | 0.62 |  | 0.47 | 0.19
4 | CCN(c1cc(-c2ccc3c(c2)N(C(C)C)C(=O)C32CCOCC2)cc(C(=O)NCc2c(OC)cc(C)[nH]c2=O)c1C)C1CCOC(C)(C)C1 (stereo not given) [US12473298, Compound 64] |  | 0.46 |  | 
